In patent US5773423A (priority 1994, dated 1998):
Like-named read-outs stand apart in the source and are kept apart here. Values belong to the compound of their own block, whether it stands above or below them.

Molecular target: T1, rat A3 receptor (Rattus norvegicus, UniProt P28647)
T1 sequence (P28647 1-320): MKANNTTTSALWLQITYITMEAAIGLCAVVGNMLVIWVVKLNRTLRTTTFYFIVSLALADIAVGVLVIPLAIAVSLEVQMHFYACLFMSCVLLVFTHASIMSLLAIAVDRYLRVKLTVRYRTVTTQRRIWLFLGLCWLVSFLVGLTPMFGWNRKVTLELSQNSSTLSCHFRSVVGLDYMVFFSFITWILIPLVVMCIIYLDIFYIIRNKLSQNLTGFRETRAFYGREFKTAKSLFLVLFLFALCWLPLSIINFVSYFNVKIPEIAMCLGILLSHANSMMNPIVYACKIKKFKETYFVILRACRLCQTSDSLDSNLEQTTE
Assay: biochemical
Type: binding

[1] = read-out: A3 percent displacement
[2] = CHO cells stably transfected with rat A3 cDNA, [125I]APNEA or [125I]AB-MECA, read-out: A3 affinity Ki
[3] = at 100 μM, read-out: A3 percent displacement
[4] = Table 2, [125I]AB-MECA, CHO/rat A3, read-out: Ki (A3)

Structure (SMILES): Nc1ncnc2c1ncn2[C@H]1O[C@@H](CO)[C@H](O)[C@@H]1O [Compound 68, β-L-adenosine]
inhibition at 100 µM [1]: 9.5 ± 4.2%
IC50 (read-out: IC50 at A3 receptors): > 100 µM

Structure (SMILES): CCNC(=O)[C@H]1O[C@@H](n2cnc3c(NCc4ccc([N+](=O)[O-])cc4)ncnc32)[C@H](O)[C@@H]1O [Compound 63, N^6-(4-nitrobenzyl)adenosine-5'-N-ethyluronamide]
Ki [2]: 0.009 ± 0.0013 µM

Structure (SMILES): CCNC(=O)[C@H]1O[C@@H](n2cnc3c(NCc4cccc(Cl)c4)ncnc32)[C@H](O)[C@@H]1O [Compound 58, N^6-(3-chlorobenzyl)adenosine-5'-N-ethyluronamide]
Ki [2]: 0.0011 ± 0.0003 µM

Structure (SMILES): CNC(=O)[C@H]1O[C@@H](n2cnc3c(NCc4cccc(C)c4)ncnc32)[C@H](O)[C@@H]1O [Compound 46, N^6-(3-methylbenzyl)-NMCA]
Ki [2]: 0.01 ± 0.003 µM

Structure (SMILES): O=S(=O)(O)c1ccc(CCCCNc2ncnc3c2ncn3[C@@H]2O[C@H](CO)[C@@H](O)[C@H]2O)cc1 [Compound 14, N^6-4-(p-sulfophenyl)butyl adenosine]
Ki [2]: 0.808 ± 0.116 µM

Structure (SMILES): Cn1c(=O)c2c(nc(C3CCCCC3)n2C)n(C)c1=O [Compound 131, 8-cyclohexylC]
inhibition at 100 µM [1]: 35.2 ± 1.8%

Structure (SMILES): Nc1ncnc2c1ncn2[C@H]1C[C@H](O)[C@@H](CO)O1 [Compound 70, 2'-deoxyadenosine, reference compound]
inhibition at 100 µM [3]: 28.3 ± 2.3%
IC50 (read-out: IC50 at A3 receptors): > 100 µM

Structure (SMILES): CCNC(=O)[C@H]1O[C@@H](n2cnc3c(N)[n+]([O-])cnc32)[C@H](O)[C@@H]1O [Compound 35, adenosine-5'-N-ethyluronamide-N^1-oxide]
selectivity (in words): not selective
Ki (read-out: Ki at A3 receptors): 0.47 µM

Structure (SMILES): O=c1[nH]c(=O)c2[nH]cnc2[nH]1 [Compound 98, xanthine]
inhibition at 100 µM [1]: 14 ± 7.9%

Structure (SMILES): CCNC(=O)[C@H]1O[C@@H](n2cnc3c(NCc4ccc(OC)cc4)ncnc32)[C@H](O)[C@@H]1O [Compound 67, N^6-(4-methoxybenzyl)adenosine-5'-N-ethyluronamide]
Ki [2]: 0.011 ± 0.003 µM

Structure (SMILES): CN(C)c1ncnc2c1ncn2[C@@H]1O[C@H](CO)[C@@H](O)[C@H]1O [Compound 9, N^6 -dimethyladenosine]
Ki [2]: 32.5 µM
Ki (read-out: Ki at A3 receptors): 32.5 µM

Structure (SMILES): CN(Cc1ccccc1)c1ncnc2c1ncn2[C@@H]1O[C@H](CO)[C@@H](O)[C@H]1O [Compound 30, N^6 -benzyl-N^6 -methyladenosine, reference compound]
inhibition at 100 µM [1]: 78.4 ± 4.6%

Structure (SMILES): Nc1ncnc2c1ncn2[C@@H]1O[C@H](COP(=O)(O)O)[C@@H](O)[C@H]1O [Compound 78, adenosine-5'-monophosphate, reference compound]
inhibition at 100 µM [1]: 17.2 ± 6.3%
IC50 (read-out: IC50 at A3 receptors): > 100 µM

Structure (SMILES): CNC(=O)[C@H]1O[C@@H](n2cnc3c(NCc4ccccc4)ncnc32)[C@H](O)[C@@H]1O [Compound 40, N^6-benzyladenosine-5'-N-methyluronamide]
selectivity for A3 over A2 (A2a) receptors: 37 fold
Ki [2]: 0.016 ± 0.001 µM

Structure (SMILES): CCCn1c(=O)c2[nH]c(C3CCCC3)nc2n(CCC)c1=O [Compound 130, 8-cyclopentyl-1,3-dipropylxanthine]
inhibition at 10 µM [1]: 18.7 ± 2.9%

Structure (SMILES): Nc1ccc(CCNc2ncnc3c2ncn3[C@@H]2O[C@H](CO)[C@@H](O)[C@H]2O)cc1 [APNEA, N^6-2-(4-aminophenyl)ethyladenosine, reference compound]
Ki [4]: 0.116 ± 0.018 µM

Structure (SMILES): Nc1ncnc2c1ccn2[C@@H]1O[C@H](CO)[C@@H](O)[C@H]1O [Compound 33, 7-deazaadenosine]
IC50: > 100 µM
inhibition at 100 µM [1]: 38.9 ± 17.7%

Structure (SMILES): CCNC(=O)[C@H]1O[C@@H](n2cnc3c(=N)n(Cc4ccc([N+](=O)[O-])cc4)cnc32)[C@H](O)[C@@H]1O [Compound 37]
Ki [2]: 0.06 ± 0.003 µM

Structure (SMILES): Cc1cn([C@H]2C[C@H](O)[C@@H](CO)O2)c(=O)[nH]c1=O [Compound 83, thymidine, reference compound]
inhibition at 100 µM [1]: 21.3 ± 4.9%

Continued, values first:

potency increase at A3 vs 1,3-di-n-butylxanthine-7-β-D-ribofuranoside (2-thio vs 2-oxo): 4 fold
A1/A3 (Table 4, ratio of Ki): 1.6
A2/A3 (Table 4, ratio of Ki): 3.0
Structure (SMILES): CCCCn1c(=O)c2c(ncn2[C@@H]2O[C@H](CO)[C@@H](O)[C@H]2O)n(CCCC)c1=S [Example 62, 1,3-di-n-butyl-2-thio-xanthine-7-β-D-ribofuranoside]

Ki [2]: 100 µM
Structure (SMILES): CCCCNc1nc2c(N)ncnc2n1[C@@H]1O[C@H](CO)[C@@H](O)[C@H]1O [drawing 13 (2nd)]

Kd (read-out: Kd from saturation of binding of [125I]APNEA, CHO/rat A3 membranes, Ki (A3) column of Table 2, footnote g): 0.0155 µM
Structure (SMILES): Nc1ccc(CCNc2ncnc3c2ncn3[C@@H]2O[C@H](CO)[C@@H](O)[C@H]2O)cc1I [[^125 I]APNEA, [^125 I]N^6-2-(4-aminophenyl)ethyladenosine]

selectivity (in words): slightly selective for A3 receptors
A1/A3 (Table 4, ratio of Ki): > 1
A2/A3 (Table 4, ratio of Ki): > 1
Structure (SMILES): COc1nc2c(c(=O)n(C)c(=O)n2C)n1[C@@H]1O[C@H](CO)[C@@H](O)[C@H]1O [Example 59, 8-methoxytheophylline-7-β-D-ribofuranoside]

inhibition at 100 µM [1]: 27.7 ± 11.3%
Structure (SMILES): CCCn1c(=S)[nH]c(=O)c2[nH]cnc21 [Compound 114, 2-thio-3-propylX, reference compound]

inhibition at 100 µM [3]: 30.6 ± 2.2%
IC50 (read-out: IC50 at A3 receptors): > 100 µM
Structure (SMILES): NC[C@H]1O[C@@H](n2cnc3c(N)ncnc32)[C@H](O)[C@@H]1O [Compound 74, 5'-deoxy-5'-aminoadenosine]

A1/A3 (Table 4, ratio of Ki): 10
A2/A3 (Table 4, ratio of Ki): 63
Structure (SMILES): CCCCn1c(=O)c2c(ncn2[C@@H]2O[C@H](C(=O)NCC)[C@@H](O)[C@H]2O)n(CCCC)c1=O [Compound 126, N-ethyl 1,3-di-n-butylxanthine-7-β-D-ribofuronamide]

A3 percent displacement (at 100 μM): 21.9 ± 6.2%
Structure (SMILES): CCCn1c(=O)c2[nH]c(-c3ccc(S(=O)(=O)O)cc3)nc2n(CCC)c1=O [Compound 135, 8-sulfophenyl-1,3-dipropylX]

inhibition at 100 µM [3]: 57.5 ± 14.3%
IC50 (read-out: IC50 at A3 receptors): < 100 µM
Structure (SMILES): CCCCCC[C@H]([C@H](C)O)n1cnc2c(N)ncnc21 (relative stereo) [Compound 96, erythro-9-(2-hydroxy-3-nonyl)adenine]

Ki [2]: 0.00142 µM
Structure (SMILES): CSC[C@H]1O[C@@H](n2cnc3c(N)ncnc32)[C@H](O)[C@@H]1O [Compound 75, 5'-deoxy-5'-methylthioadenosine]

A1/A3: 0.35
A2/A3: 0.65
factor less potent than N6-(3-iodobenzyl)-adenosine at A3 receptors: 19 factor
Ki [4]: 0.181 ± 0.03 µM
Structure (SMILES): Nc1nc(NCc2cccc(I)c2)c2ncn([C@@H]3O[C@H](CO)[C@@H](O)[C@H]3O)c2n1 [Example 43, 2-amino-N^6-(3-iodobenzyl)-9-[β-D-ribofuranosyl]-adenine]

A1/A3: 0.30
A2/A3: > 1
Structure (SMILES): Cn1c(=O)c2c(ncn2[C@@H]2O[C@H](CO)[C@@H](O)[C@H]2O)n(C)c1=O [Compound 117, theophylline-7-riboside]

selectivity (in words): highly selective for A3 receptors
Ki [4]: 0.0023 ± 0.00096 µM
A1/A3 (Table 2, ratio of Ki): 930
Structure (SMILES): CNC(=O)[C@H]1O[C@@H](n2cnc3c(NCc4cccc(I)c4)nc(SC)nc32)[C@H](O)[C@@H]1O [Example 46, N^6-(3-iodobenzyl)-2-methylthio-9-[5-(methylamido)-β-D-ribofuranosyl]-adenine]

inhibition at 100 µM [3]: 42.9 ± 9.4%
IC50 (read-out: IC50 at A3 receptors): > 100 µM
Structure (SMILES): CO[C@@H]1[C@H](O)[C@@H](CO)O[C@H]1n1cnc2c(N)ncnc21 [Compound 71, 2'-O-methyladenosine, reference compound]

inhibition at 100 µM [1]: 19 ± 6.8%
Structure (SMILES): Cn1cnc2c(=O)[nH]c(=O)n(C)c21 [Compound 107, 3,9-dimethylX, reference compound]

inhibition at 100 µM [3]: 32.6 ± 10.8%
Ki (read-out: Ki at A3 receptors): ≥ 100 µM
Structure (SMILES): Nc1[nH]c2ccccc2c2ncnc1-2 [Compound 94, imidazo[4,5-c]quinolin-4-amine]
